# Antibody variant affinities, Ab-14 light chain, assay 1

The target is the same throughout: PDVDLGDISGINAS, from the HR2 region of SARS-CoV-2 spike.

Parent scFv Ab-14: VH joined to VL by the linker GGGGSGGGGSGGGGS. Changes lie in the light chain CDRs alone.
VH: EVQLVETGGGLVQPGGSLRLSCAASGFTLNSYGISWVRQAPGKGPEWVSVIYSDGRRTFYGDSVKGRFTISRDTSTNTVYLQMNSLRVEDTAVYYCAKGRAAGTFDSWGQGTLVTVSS
VL: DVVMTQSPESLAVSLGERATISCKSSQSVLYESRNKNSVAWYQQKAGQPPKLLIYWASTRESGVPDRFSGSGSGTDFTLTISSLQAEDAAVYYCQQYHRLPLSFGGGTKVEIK

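The starting antibody came from a phage panning campaign against this peptide. Variants in AAYL50 differ from the parent at up to three CDR positions; double and triple changes were sampled at random. In AlphaSeq, yeast of one mating type display the scFv and yeast of the other type display the target. Pairs that bind mate more often; barcode pairs of the diploids are counted by sequencing. The ratio of observed to expected reads was calibrated, replicate by replicate, on BCL2-family standards whose Kd was known from biolayer interferometry. The assay was run in three technical replicates.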

Substitutions are numbered in sequence along the VL above, starting at 1 (not Kabat). The read-out is the apparent dissociation constant on a log10 scale (nM): the lower, the stronger. The mean shown is taken over the replicates in which the pair was detected. A pair that was not seen in any replicate is written "not detected"; this usually means weak binding, but a binder can also be missed. As a blank, each scFv also met three strains without target: over library AAYL50, 18% of these pairings were detected, typically at 4.19 and seldom below 2.99.

changes	log10 Kd (nM), mean	seen in
V29L/Q96W/H98Q	3.88	2/3
Q27H/A40G/Q95K	5.19	1/3
E32N/N35L/W56Y	0.56	3/3
A57I/S62K/R99Y	not detected	0/3
N37G/T59F/R99N	2.33	3/3
V29P/A40R/S58T	not detected	0/3
Q27A/S103L	1.85	3/3
S26F/V29A/V39Y	not detected	0/3
N37R/R60G/Y97T	not detected	0/3
N35H/T59F/R99E	2.24	3/3
S26N/S38F/S58I	not detected	0/3
Q27L/S33H/Q95W	3.48	1/3
K36E/T59P/R99Q	4.53	1/3
S28V/S38C/L100N	not detected	0/3
Y31M/Y97K/S103N	1.24	3/3
R60K/P101W	not detected	0/3
Y31F/E32F	1.76	3/3
A57I/Y97C/P101Y	4.61	1/3
N37T/E61G/Y97E	4.22	2/3
E32A/K36A/T59Q	0.64	3/3
Q27T/E32H/S38W	not detected	0/3
Y31M/A57E/S58Y	3.66	2/3
S62A/Y97G	3.37	1/3
R34F/Y97D/L102I	4.54	1/3
Y31A/A57G/L100K	5.32	1/3
N35Y/T59Q	0.77	3/3
T59V/S62N/L102G	0.82	3/3
S26M/Q95A/Y97D	not detected	0/3
S33H/A57C	4.61	2/3
A40E/L100P/P101V	4.51	2/3

Second part, the sequence after the result:

log10 Kd (nM), mean	seen in	changes
4.11	1/3	S33P/N37E/A40G
not detected	0/3	V39S/R60W/P101R
not detected	0/3	R60H/Y97N/R99H
1.09	3/3	Q27Y/Y31A/N35C
1.25	3/3	R34S/H98M/R99L
5.45	1/3	W56A/H98R/S103R
1.69	3/3	R34Q/N35S/L102Y
0.39	3/3	W56Q/Q96H/R99M
1.16	3/3	Q27T/E61C/P101Y
not detected	0/3	K24W/A40G/R60D
1.08	3/3	S25N/S26K/Q27F
1.06	3/3	S25E/L100K/L102V
1.05	3/3	N37E/W56M/S103A
4.61	1/3	S25P/Y31I/S33Y
not detected	0/3	V29W/A57R/R60M
1.40	3/3	S25F/S26Q/R99H
not detected	0/3	A40R/E61A/S62T
4.49	2/3	S28R/V39D/L100N
1.78	3/3	Y31D/N35S/N37M
3.99	3/3	L30A/V39F/P101F
not detected	0/3	N35K/A40C/R99P
not detected	0/3	S28E/R34D/V39H
1.43	3/3	R34N/Q96R/R99L
not detected	0/3	K24T/R34N/A57W
0.83	3/3	W56Y/Q96F
not detected	0/3	A57K/Y97M/S103V
4.76	1/3	S28I/E32I/L100T
2.24	2/3	K24R/T59Y/E61W
4.80	2/3	Q27I/Y97N/R99Q
3.59	3/3	K24M/S58R/L102S
3.86	1/3	K24Q/W56Y/Q95H

For reference, 5 entries of the list once more:

changes,"log10 Kd (nM), mean",seen in
Q27T/E32H/S38W,not detected,0/3
S28R/V39D/L100N,4.49,2/3
S28E/R34D/V39H,not detected,0/3
A40R/E61A/S62T,not detected,0/3
A40E/L100P/P101V,4.51,2/3

For reference, the parent read 0.65 as the reference entry and 1.68 as a member of this library.

Data: MIT Lincoln Laboratory AlphaSeq set, Engelhart et al. 2022, doi:10.1038/s41597-022-01779-4, as distributed in FLAb.